The target in the test is Kappa-type opioid receptor (Homo sapiens, UniProt P41145). Put plainly: Displacement of [125I]IOXY from human kappa opioid receptor expressed in CHO cells. Format: cell-based. In outline:
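Membranes from CHO cells stably transfected with the respective human opioid receptor cDNA (hMOR-, hDOR-, hKOR-CHO). Incubation in 50 mM Tris-HCl pH 7.4 with bacitracin, bestatin, leupeptin and chymostatin. Nonspecific binding is defined with 10 µM naloxone. Ki is the mean ± SD of at least two independent determinations.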
For orientation: Loss of bound radioactivity is the signal in a displacement assay; it reports binding, not function.

Protein sequences, listed by entry. Tags and fused reporters are not part of them. Lines headed by an entry give the natural chain unless they say otherwise; changes in a name come on top.
UniProt P41145: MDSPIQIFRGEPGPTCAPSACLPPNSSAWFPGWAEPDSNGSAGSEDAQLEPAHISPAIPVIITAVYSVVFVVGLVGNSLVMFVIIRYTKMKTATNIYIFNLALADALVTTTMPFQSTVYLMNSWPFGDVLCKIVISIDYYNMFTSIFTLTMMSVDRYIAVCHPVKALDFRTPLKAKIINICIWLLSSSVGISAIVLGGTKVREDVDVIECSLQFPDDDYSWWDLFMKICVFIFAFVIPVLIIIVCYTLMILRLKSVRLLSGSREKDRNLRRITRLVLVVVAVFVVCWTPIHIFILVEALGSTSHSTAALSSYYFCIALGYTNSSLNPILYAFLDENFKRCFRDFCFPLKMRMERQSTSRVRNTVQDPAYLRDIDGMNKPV

In general, Ki refers to the dissociation constant of the complex between target and ligand, obtained from inhibition or displacement. Low values mean tighter binding, high ones weaker binding.

The compound `COC(=O)[C@@H]1C[C@H](O)C(=O)[C@H]2[C@@]1(C)CC[C@H]1C(=O)O[C@H](c3ccoc3)C[C@]21C` [SALVINORIN B] showed an inhibition constant (Ki) of 280 nM.

These data come from ChEMBL document CHEMBL1145447, “Synthetic studies of neoclerodane diterpenes from Salvia divinorum: preparation and opioid receptor activity of salvinicin analogues” (J Med Chem, 2007).
